# Values quoted from earlier work, collected in patent US6372198B1, “Dentifrice for the mineralization and remineralization of teeth” (priority 2000, dated 2002).
# Test system: dental caries
# Details: incorporated in dentifrice formulations at a level of ca. 0.76%; clinical studies
substance,measurement,value
sodium monofluorophosphate,reduction of dental caries,17-38%
